{"sequences": {"note": "The chains behind the UniProt entries cited, without tags or fusion partners. Residues count along the entry.", "UniProt O00748, 27-559": "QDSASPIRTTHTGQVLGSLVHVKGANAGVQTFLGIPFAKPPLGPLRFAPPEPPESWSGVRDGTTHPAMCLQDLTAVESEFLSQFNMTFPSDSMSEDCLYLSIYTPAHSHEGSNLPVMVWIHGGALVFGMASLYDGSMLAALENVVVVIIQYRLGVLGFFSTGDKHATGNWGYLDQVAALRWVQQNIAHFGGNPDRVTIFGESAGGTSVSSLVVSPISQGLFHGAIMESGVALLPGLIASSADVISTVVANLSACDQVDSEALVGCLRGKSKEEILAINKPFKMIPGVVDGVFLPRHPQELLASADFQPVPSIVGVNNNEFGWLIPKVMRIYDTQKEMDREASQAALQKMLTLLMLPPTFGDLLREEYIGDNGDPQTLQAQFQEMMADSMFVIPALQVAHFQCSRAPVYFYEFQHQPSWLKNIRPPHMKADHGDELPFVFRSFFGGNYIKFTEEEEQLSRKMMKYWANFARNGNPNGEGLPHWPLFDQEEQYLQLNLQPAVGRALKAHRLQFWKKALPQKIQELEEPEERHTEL"}, "source": "paper PMC5799297", "about": "“Metabolic Hydrolysis of Aromatic Amides in Selected Rat, Minipig, and Human In Vitro Systems” (Scientific Reports, 2018)", "target": "human CES2 Supersomes (Homo sapiens, UniProt O00748)", "conditions": "1 mg/ml protein, 0.5 µM amide, pH 7.4, 37 °C, up to 45 min, no NADPH, hydrolysed = parent below 80% of t0 or amine metabolite detected", "data": [{"smiles": "CC(O)(CS(=O)(=O)c1ccc(F)cc1)C(=O)Nc1ccc(C#N)c(C(F)(F)F)c1", "note": "(stereo not shown) [bicalutamide, Bicalutamide]", "values": [{"measurement": "amide hydrolysis", "value": "hydrolysis of bicalutamide occurred"}]}]}
